Data as given in ChEMBL document CHEMBL5149994, “Anticancer potential of indirubins in medicinal chemistry: Biological activity, structural modification, and structure-activity relationship” (Eur J Med Chem, 2021).

Sequences of proteins named here, by UniProt entry; tags and fusion partners are left off. A change or cut given only in a name is not applied to a line headed by its entry.
UniProt P11802: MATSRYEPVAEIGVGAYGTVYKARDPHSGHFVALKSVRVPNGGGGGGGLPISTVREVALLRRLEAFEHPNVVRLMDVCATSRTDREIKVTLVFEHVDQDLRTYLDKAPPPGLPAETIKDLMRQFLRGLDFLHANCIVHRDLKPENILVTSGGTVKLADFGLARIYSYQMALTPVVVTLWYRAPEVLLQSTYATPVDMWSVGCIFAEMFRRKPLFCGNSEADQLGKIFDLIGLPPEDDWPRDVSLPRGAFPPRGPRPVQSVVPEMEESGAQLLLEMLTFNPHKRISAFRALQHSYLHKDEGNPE
UniProt P49841: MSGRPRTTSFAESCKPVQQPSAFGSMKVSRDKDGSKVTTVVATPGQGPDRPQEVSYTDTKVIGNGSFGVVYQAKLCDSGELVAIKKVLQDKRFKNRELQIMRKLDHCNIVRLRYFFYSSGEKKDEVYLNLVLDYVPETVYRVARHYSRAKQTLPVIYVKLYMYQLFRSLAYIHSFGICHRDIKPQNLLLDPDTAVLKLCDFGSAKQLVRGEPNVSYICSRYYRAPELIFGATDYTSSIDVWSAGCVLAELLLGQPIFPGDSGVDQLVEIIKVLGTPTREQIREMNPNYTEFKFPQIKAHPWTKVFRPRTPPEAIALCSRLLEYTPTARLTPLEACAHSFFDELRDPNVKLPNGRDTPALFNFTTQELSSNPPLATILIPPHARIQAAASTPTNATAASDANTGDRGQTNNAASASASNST
UniProt B2LUN4: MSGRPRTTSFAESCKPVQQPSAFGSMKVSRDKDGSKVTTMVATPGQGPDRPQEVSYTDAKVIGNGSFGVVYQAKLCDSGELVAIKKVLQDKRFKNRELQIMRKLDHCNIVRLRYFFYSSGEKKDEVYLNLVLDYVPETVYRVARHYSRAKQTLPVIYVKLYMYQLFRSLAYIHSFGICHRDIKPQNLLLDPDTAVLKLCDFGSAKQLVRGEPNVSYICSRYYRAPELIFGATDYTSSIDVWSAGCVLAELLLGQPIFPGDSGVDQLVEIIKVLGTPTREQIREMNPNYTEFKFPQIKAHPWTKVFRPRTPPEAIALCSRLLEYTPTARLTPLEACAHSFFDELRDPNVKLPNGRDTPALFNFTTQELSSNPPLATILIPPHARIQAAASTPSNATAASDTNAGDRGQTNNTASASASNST
UniProt I6LNT8: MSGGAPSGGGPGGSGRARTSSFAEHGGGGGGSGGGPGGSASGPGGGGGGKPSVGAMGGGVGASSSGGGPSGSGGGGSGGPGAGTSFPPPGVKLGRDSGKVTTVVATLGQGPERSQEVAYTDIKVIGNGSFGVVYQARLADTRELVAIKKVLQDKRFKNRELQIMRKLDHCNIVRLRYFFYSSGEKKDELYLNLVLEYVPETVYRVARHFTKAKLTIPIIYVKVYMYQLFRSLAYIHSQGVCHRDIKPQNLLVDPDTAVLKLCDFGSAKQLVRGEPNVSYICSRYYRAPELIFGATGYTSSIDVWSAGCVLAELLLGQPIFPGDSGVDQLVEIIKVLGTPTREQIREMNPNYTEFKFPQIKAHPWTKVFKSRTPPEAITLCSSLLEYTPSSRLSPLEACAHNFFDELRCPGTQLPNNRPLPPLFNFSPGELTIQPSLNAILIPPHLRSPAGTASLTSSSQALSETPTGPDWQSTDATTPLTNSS

Experiments:
[1] = biological target: Cyclin-dependent kinase 4/cyclin D1 (Homo sapiens, UniProt P11802); experiment: Inhibition of CDK4/cyclin D1 (unknown origin); format: protein-complex assay
[2] = biological target: T1, Glycogen synthase kinase-3 beta (Homo sapiens, UniProt P49841); experiment: Inhibition of GSK3beta (unknown origin) in presence of ATP
[3] = biological target: T1, Glycogen synthase kinase-3 beta; experiment: Inhibition of GSK3beta (unknown origin) assessed as decrease in tau phosphorylation at Ser214 residue incubated for 30 mins by Western blot assay
[4] = biological target: Glycogen synthase kinase-3 (Sus scrofa, UniProt B2LUN4+I6LNT8); experiment: Inhibition of porcine brain GSK-3alpha/beta incubated for 30 mins in presence of [33p]-gamma ATP by scintillation counter analysis
[5] = Inhibition of AMPK (unknown origin) in presence of ATP; design: species or system Homo sapiens

Compound | IC50 [1] [nM] | IC50 [2] [nM] | IC50 [3] [nM] | IC50 [4] [nM] | IC50 [5] [nM]
O=C1Nc2ccc(S(=O)(=O)O)cc2/C1=C1/Nc2ccccc2C1=O | 300 | – | – | – | –
O=C1Nc2ccccc2/C1=C1/Nc2ccccc2/C1=N\O | – | 190 | 22 | 22 | 220
O=C1Nc2ccccc2/C1=C1/Nc2ccccc2C1=O [INDIRUBIN] | – | – | – | 1000 | –
